Earlier results on one molecule are cited in US10653700B2, “Composition comprising a therapeutic agent and a respiratory stimulant and methods for the use thereof” (priority 2015, dated 2020).

Data set [1] deals with opioid receptors. Particulars: cited from earlier work.
The conditions of data set [2]: in vivo; cited from earlier work.

`COc1ccc2c3c1O[C@H]1C(=O)CC[C@H]4[C@@H](C2)N(C)CC[C@]314` [hydrocodone]: in data set [1], the “affinity to δ-opioid receptors compared with μ-opioid receptors” value is “six times lesser affinity” and the “potency at binding to receptors relative to morphine” value is “one-tenth as potent as morphine”. In data set [2], the “potency in analgesic properties relative to morphine” value was 59% and the “relative milligram strength of hydrocodone to codeine” value is 6 fold.
